## Yeast mating assay B: variants of the scFv Ab-14

Target: peptide PDVDLGDISGINAS, taken from heptad repeat 2 (HR2) of SARS-CoV-2 spike.

Parent scFv Ab-14: VH joined to VL by a 15-residue (Gly4Ser)3 linker. Changes lie in the light chain CDRs alone.
VH: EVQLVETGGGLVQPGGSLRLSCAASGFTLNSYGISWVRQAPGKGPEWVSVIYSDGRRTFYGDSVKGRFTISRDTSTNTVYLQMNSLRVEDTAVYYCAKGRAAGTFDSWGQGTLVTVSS
VL: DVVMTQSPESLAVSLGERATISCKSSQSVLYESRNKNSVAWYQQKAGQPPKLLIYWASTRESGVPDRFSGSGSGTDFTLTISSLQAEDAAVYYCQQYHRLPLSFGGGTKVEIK

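This is the validation round: designs drawn from the data on random variants, tested in the same kind of assay. Group labels follow the data file (Ctrl: baseline library sampled from a position-specific scoring matrix, with some repeated check sequences; Rand: our label for a block that the file lists under HC and that is probably the random mutants of the ten best first-round binders; En: ensemble of fine-tuned language models; GP: Gaussian process model; HC: hill climbing; Gen: genetic algorithm; Gibbs: Gibbs sampling; a sequence that several methods proposed may carry one label only). The assay is AlphaSeq: two haploid yeast populations carry antibody and antigen on their surface. The frequency of each diploid, read from paired DNA barcodes, reflects how well the two displayed proteins bind. Read counts were normalised to the haploid input and turned into Kd by a linear fit to BCL2-family pairs of known affinity, for each replicate. The assay was run in six technical replicates.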

Variants are written as CDR1, CDR2 and CDR3 of the light chain (limits as in the source). Parent: KSSQSVLYESRNKNSVA, WASTRES, QQYHRLPLS.
Values are log10 of the apparent Kd in nM; lower means stronger binding.
Replicates are averaged; those with no signal do not enter the mean.
Where no diploid with the target was found in any replicate, the entry reads "not detected": below detection, most likely a poor binder, though not proof of it.
The parent sequence was in this pool as ten entries: three were never detected, three once, and four in most replicates, with averages from 0.34 to 2.37.
Background: pairings of all light chain designs with three empty control strains gave a value in 4% of cases (median 2.64, 5th percentile 1.59). Values in that range, when seen in few replicates, are hard to tell from nonspecific mating. The control count says in how many pairings with the empty strains this scFv gave a signal.
The authors' rule: three or more of the six replicates give a measured affinity, fewer mean a poor binder.
The range of this assay differs from that of the first round, and the authors advise against merging the two.

CDR-L1,CDR-L2,CDR-L3,group,"mean, log10 nM",detected,signal with controls
KLSQSNPYESRNKNSVA,NASTRES,QQYHRLPLS,GP_Gen,0.25,6 of 6,2 of 18
KDSQAVPYEIRNFNSVA,WASTRES,QTYHRLPLS,Ctrl,3.25,2 of 6,0 of 18
KISQMVRVGSTHSNSIA,EEAKRAD,QQYHRLPLA,En_Gen,0.57,6 of 6,2 of 18
KISWNFYIESRNLNSVA,EMTTREY,QDYDRLPLS,En_HC,not detected,0 of 6,0 of 18
NSSQSVLYESRNKNSVA,WASTRES,QQYHRLPLS,Ctrl,2.22,3 of 6,0 of 18
KQPQSVLVESRNKNSVA,DASTRES,QQYHRLPLS,Rand,0.05,6 of 6,0 of 18
KLSQQMLYESRNKNNVA,AASDRES,QQYHRLPLS,GP_Gibbs,0.07,6 of 6,2 of 18
KVSQSHLYESRNKNSVA,NASTREQ,QQYHRLPLS,GP_Gen,-0.17,6 of 6,1 of 18
ALRGVGYDEQVKHSAIA,DGEHVNN,QQYSMLPLS,En_Gibbs,0.45,6 of 6,1 of 18
KMSQSELYESRNKNSVA,WASTRES,QQYHRLPLS,Ctrl,1.04,6 of 6,2 of 18
KLSQSMLYESRNKNSVA,EASTRES,QQYHRLPLS,GP_Gen,-0.19,6 of 6,0 of 18
MISQLYNMGSFAKNSVA,QASERNN,QQYDRLPLM,En_Gen,0.50,6 of 6,2 of 18
MMSQVTGSGQRHRNNVA,QTSTREP,QQYDHLPLI,En_Gen,1.25,6 of 6,2 of 18
KIDQWKLGESVNKNSVA,NASTRME,QQYHRLPLS,GP_Gibbs,-0.21,6 of 6,2 of 18
SLQQSWGYQSRNKNSVA,NASTREW,QQYHRLPLS,GP_Gibbs,0.48,6 of 6,1 of 18
KITGTMRFEQKASNNIA,EVTQRTK,QQYYRLPLS,En_Gen,0.56,6 of 6,1 of 18
HLGLSTMLQETVRNSVA,NNSTRED,QQYDRLPLS,En_Gen,2.93,5 of 6,0 of 18
KLSQSDLYESRNSNNVA,EASTRES,QQYHRLPLS,GP_Gen,0.09,6 of 6,0 of 18
KLQQSVLYESRMKNSVA,NASTRLS,QQYHRLPLS,GP_Gen,0.16,6 of 6,2 of 18
MFSQLTYMGTRARNAVA,QAETRVN,QQYHHLPLI,En_HC,1.90,6 of 6,0 of 18
KSSISYLEESRNKNSVA,NASTRES,QQYHRLPLS,GP_HC,-0.42,6 of 6,0 of 18
KSSFSVLYESRNKNNVA,EASTRES,QQYHRLPLS,Ctrl,1.02,6 of 6,0 of 18
KISQSVLYESRNKNSVA,WASTRES,QQYHRAPLS,Ctrl,1.39,6 of 6,1 of 18
KSSQSVLYESFNKNSVA,WASTRSS,QQYHRLHLS,Ctrl,not detected,0 of 6,0 of 18
KLQSLELYEGRWKNSVA,SASTRES,QQYHRLPLS,GP_Gibbs,0.31,6 of 6,1 of 18
TISQMSQLFSQTINNVA,EVSTRLN,QQYDRLPLA,En_Gen,1.02,6 of 6,1 of 18

Second part, the sequence after the result:

"mean, log10 nM",detected,signal with controls,CDR-L1,CDR-L2,CDR-L3,group
0.22,6 of 6,1 of 18,KSSWSVLFESRNKNSVA,DASTRES,QQYHRLPLS,GP_HC
0.28,6 of 6,2 of 18,KVQQSELGESRHFNSVA,NASKRES,QQYHRLPLS,GP_Gibbs
2.84,4 of 6,1 of 18,KVSEFMRGLMKMQDSIA,DNVTRSN,QQYDRLPLS,En_Gen
0.14,6 of 6,0 of 18,KWMQSVDYESRNKNSVA,NGQTREE,QQYHRLPLS,GP_Gibbs
-0.03,6 of 6,0 of 18,TLSDLMHMESRNANSVA,DLVKRES,QQYHRLPLS,En_HC
1.86,5 of 6,0 of 18,MLKMENEEFNFDKNSVA,EAVEKES,QQYHRLPII,En_Gibbs
0.10,6 of 6,0 of 18,KLMQSDLYESRMQNNVA,DASTRMS,QQYHRLPLS,GP_Gibbs
-0.16,6 of 6,1 of 18,KFSGSVLLESRTKNSVA,NASTRES,QQYHRLPLS,GP_HC
0.84,6 of 6,2 of 18,KLTATMRFEQKASNNIA,EVTQRSK,QQYARLPLS,En_Gen
not detected,0 of 6,0 of 18,QTTAFYEHLKDQQQAMA,NATMRDQ,QQYERLPLS,En_Gibbs
0.11,6 of 6,1 of 18,KLSQSVDYESRNKNAVA,AASTRES,QQYHRLPLS,GP_Gen
0.18,6 of 6,0 of 18,KSPQSELYESRNKNSVA,NASQRES,QQYHRLPLS,GP_Gen
0.06,6 of 6,0 of 18,KLSLSVLPESRNKNSVA,NASTRES,QQYHRLPLS,GP_HC
0.11,6 of 6,0 of 18,KSSQSVLTESRTKNSVA,EASTRQS,QQYVRLPLS,Ctrl
-0.22,6 of 6,0 of 18,KLSPEVQYESRNKNSVA,GASERES,QQYHRLPLS,GP_Gibbs
1.16,6 of 6,1 of 18,HIDTANRGEDMKQDPIA,QADIREQ,QQYFQLPLI,En_Gibbs
0.19,6 of 6,1 of 18,KISQSPLYESVNKNSVA,DASTRES,QQYHRLPLS,GP_HC
0.00,6 of 6,3 of 18,KLSNSVWMESRNKNQVA,EASKREM,QQYHRLPLS,GP_Gibbs
2.24,1 of 6,0 of 18,KLTAAQNYYGQNYSNIA,EEVNSLQ,QQYHHLPLS,En_Gibbs
not detected,0 of 6,0 of 18,HSSQSVKFESRNKNSVA,DASTRES,QQYHRLPLS,GP_HC
0.57,6 of 6,1 of 18,NISSSMYFQSRNKNNIA,EMSTRER,QHYHRLPLS,En_HC
0.15,6 of 6,2 of 18,MVTQMAMSGMTNKRSVA,NAETRED,QQYFRLPLI,En_Gen
3.26,5 of 6,2 of 18,SLAESAHMESRNKNSVA,DNTTRES,QHYDRLPLS,En_HC
0.78,6 of 6,1 of 18,KMSQSVMYEGRNKNSVA,FASTRSS,QQYHRLPLS,Ctrl
-0.07,6 of 6,0 of 18,KVSQSQGYESRNKNSVA,NASTRES,QQYHRLPLS,GP_Gen
1.11,6 of 6,0 of 18,KITATMRFEQSKSNNIA,EVTTRSK,QQYYRLPLA,En_Gen

6 of these entries, quoted again:

CDR-L1,CDR-L2,CDR-L3,group,"mean, log10 nM",detected,signal with controls
MMSQVTGSGQRHRNNVA,QTSTREP,QQYDHLPLI,En_Gen,1.25,6 of 6,2 of 18
KLSNSVWMESRNKNQVA,EASKREM,QQYHRLPLS,GP_Gibbs,0.00,6 of 6,3 of 18
KSSQSVLTESRTKNSVA,EASTRQS,QQYVRLPLS,Ctrl,0.11,6 of 6,0 of 18
SLAESAHMESRNKNSVA,DNTTRES,QHYDRLPLS,En_HC,3.26,5 of 6,2 of 18
NSSQSVLYESRNKNSVA,WASTRES,QQYHRLPLS,Ctrl,2.22,3 of 6,0 of 18
KVSQSQGYESRNKNSVA,NASTRES,QQYHRLPLS,GP_Gen,-0.07,6 of 6,0 of 18

From the AlphaSeq antibody data of Li et al. 2023 (doi:10.1038/s41467-023-39022-2), copy in the FLAb collection.